Here are results for 5 compounds from EP1019392B1, “TRICYCLIC AMIDES USEFUL FOR INHIBITION OF G-PROTEIN FUNCTION AND FOR TREATMENT OF PROLIFERATIVE DISEASES” (SCHERING CORPORATION, priority 1995, dated 1997).

Sequences of proteins named here, by UniProt entry; tags and fusion partners are left off.
UniProt Q02293, whole entry: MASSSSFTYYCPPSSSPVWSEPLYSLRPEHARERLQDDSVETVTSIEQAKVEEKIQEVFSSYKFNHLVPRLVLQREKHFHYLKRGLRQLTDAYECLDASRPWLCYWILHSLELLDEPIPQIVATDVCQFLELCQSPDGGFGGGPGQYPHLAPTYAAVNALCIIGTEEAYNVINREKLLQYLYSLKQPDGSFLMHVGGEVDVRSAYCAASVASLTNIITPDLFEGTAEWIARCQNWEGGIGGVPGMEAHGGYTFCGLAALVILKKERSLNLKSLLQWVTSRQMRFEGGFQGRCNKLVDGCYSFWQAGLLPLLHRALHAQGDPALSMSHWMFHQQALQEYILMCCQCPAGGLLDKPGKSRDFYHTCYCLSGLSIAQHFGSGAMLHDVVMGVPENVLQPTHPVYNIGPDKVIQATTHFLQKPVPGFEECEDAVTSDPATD

Like-named read-outs stand apart in the source and are kept apart here.

For the test, the target named is T1, farnesyl protein transferase (FPT) (Rattus norvegicus, UniProt Q02293+Q04631).
T1 construct: were partially purified from rat brain by ammonium sulfate fractionation followed by Q-Sepharose; from tissue; host or cells: rat brain
In words: In vitro enzyme assay: inhibition of farnesyl protein transferase (transfer of [3H]farnesyl to Ras-CVLS). Format: biochemical. As to the method: • 1. In vitro enzyme assays: Inhibition of farnesyl protein transferase and geranylgeranyl protein transferase. […] Human farnesyl protein transferase was also expressed in E. coli, using cDNA clones encoding both the a and b subunits. […] Human farnesyl protein transferase was partially-purified from the soluble protein fraction of E. coli as described above. […] Two forms of val^12-Ha-Ras protein were prepared as substrates for these enzymes, differing in their carboxy terminal sequence. One form terminated in cysteine-valine-leucine-serine (Ras-CVLS) the other in cystein-valine-leucine-leucine (Ras-CVLL). Ras-CVLS is a substrate for the farnesyl protein transferase while Ras-CVLL is a substrate for geranylgeranyl protein transferase I. The cDNAs encoding these proteins were constructed so that the proteins contain an amino-terminal extension of 6 histidine residues. Both proteins were expressed in Escherichia coli and purified using metal chelate affinity chromatography. The radiolabelled isoprenyl pyrophosphate substrates, [^3H]farnesyl pyrophosphate and [^3H]geranylgeranyl pyrophosphate, were purchased from DuPont/New England Nuclear. […] The reaction was allowed to proceed for 30 minutes at room temperature and then stopped with 0.5 ml of 4% sodium dodecyl sulfate (SDS) followed by 0.5 ml of cold 30% TCA. Samples were allowed to sit on ice for 45 minutes and precipitated Ras protein was then collected on GF/C filter paper mats using a Brandel cell harvester. […] Percent inhibition was calculated relative to the DMSO vehicle control. The geranylgeranyl protein transferase I assay was essentially identical to the farnesyl protein transferase assay described above, with two exceptions: [^3H]geranylgeranylpyrophosphate replaced farnesyl pyrophosphate as the isoprenoid donor and Ras-CVLL was the protein acceptor. […] Cell-Based Assay: Transient expression of val^12-Ha-Ras-CVLS and val^12-Ha-Ras-CVLL in COS monkey kidney cells: Effect of farnesyl protein transferase inhibitors on Ras processing and on disordered cell growth induced by transforming Ras. COS monkey kidney cells were transfected by electroporation with the plasmid pSV-SPORT (Gibco/BRL) containing a cDNA insert encoding either Ras-CVLS or Ras-CVLL, leading to transient overexpression of a Ras substrate for either farnesyl protein transferase or geranylgeranyl protein transferase I, respectively (see above). Following electroporation, cells were plated into 6-well tissue culture dishes containing 1.5 ml of Dulbecco's-modified Eagle's media (GIBCO, Inc.) supplemented with 10% fetal calf serum and the appropriate farnesyl protein transferase inhibitors. After 24 hours, media was removed and fresh media containing the appropriate drugs was re-added. 48 hours after electroporation cells were examined under the microscope to monitor disordered cell growth induced by transforming Ras. Cells expressing transforming Ras become more rounded and refractile and overgrow the monolayer, reminiscent of the transformed phenotype. Cells were then photographed, washed twice with 1 ml of cold phosphate-buffered saline (PBS) and removed from the dish by scraping with a rubber policeman into 1 ml of a buffer containing 25 mM Tris, pH 8.0; 1 mM ethylenediamine tetraacetic acid; 1 mM phenylmethylsulfonyl fluoride; […] leupeptin; and 0.1 mM pepstatin. Cells were lysed by homogenization and cell debris was removed by centrifugation at 2000 x g for 10 min. […]

[1] abbreviates: Table 1, partially purified rat brain FPT, read-out: FPT IC50.
Setting [2] is: FPT IC50, Table 1, partially purified rat brain FPT.

`NC(=O)N1CCC(CC(=O)N2CCC(C3c4ncc(Br)cc4CCc4cc(Cl)cc(Br)c43)CC2)CC1` (centres unmarked) [Example 10]: under setting [1], the 50% inhibitory concentration (IC50) (usually the concentration that gives 50% inhibition) came out at 1.9 nM.

`NC(=O)N1CCC(CC(=O)N2CCC(=C3c4ncc(Br)cc4CCc4cc(Cl)cc(Br)c43)CC2)CC1` (racemic) [Example 8]: 21 nM corresponded to half-maximal inhibition under setting [2] (IC50).

As to `NC(=O)N1CCC(CC(=O)N2CCC([C@@H]3c4ncc(Br)cc4CCc4cc(Cl)cc(Br)c43)CC2)CC1` [Example 10A], under setting [1], the IC50 is over 94 nM.

Under setting [2], `NC(=O)N1CCC(CC(=O)N2CCC(=C3c4ncc(Br)cc4CCc4cc(Cl)cc(Br)c43)CC2)CC1` (single isomer, unassigned) [Example 8A] yielded a concentration for half-maximal inhibition (IC50) of over 94 nM.

With `NC(=O)N1CCC(CC(=O)N2CCC(C3c4ncc(Br)cc4CCc4cc(Cl)cc(Br)c43)CC2)CC1` (centres unmarked) [Example 10B], under setting [2], the half-inhibitory concentration (IC50) came out at 3 nM.
